# Ab-95 light chain CDR variants: yeast mating affinities

Data: MIT Lincoln Laboratory AlphaSeq set, Engelhart et al. 2022, doi:10.1038/s41597-022-01779-4, as distributed in FLAb.

All variants were tested on one target, the spike HR2 peptide PDVDLGDISGINAS (SARS-CoV-2).

Parent: Ab-95, a human scFv built as VH, a 15-residue (Gly4Ser)3 linker, VL. Only the CDRs of the light chain vary.
VH: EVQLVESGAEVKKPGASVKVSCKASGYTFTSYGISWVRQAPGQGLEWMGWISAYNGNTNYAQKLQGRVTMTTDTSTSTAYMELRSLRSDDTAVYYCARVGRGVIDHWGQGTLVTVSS
VL: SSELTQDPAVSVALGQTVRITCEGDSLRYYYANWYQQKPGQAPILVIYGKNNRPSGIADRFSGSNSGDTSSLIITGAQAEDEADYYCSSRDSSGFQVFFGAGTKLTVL

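The parent was found by panning a naive human phage display library on the peptide. Library AAYL52 holds single substitutions and randomly drawn double and triple substitutions in the CDRs. In AlphaSeq, yeast of one mating type display the scFv and yeast of the other type display the target. The frequency of each diploid, read from paired DNA barcodes, reflects how well the two displayed proteins bind. Read counts were normalised to the haploid input and turned into Kd by a linear fit to BCL2-family pairs of known affinity, for each replicate. Mating was done three times.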

The parent's light chain CDRs are EGDSLRYYYAN, GKNNRPS, SSRDSSGFQVF; each variant's own CDRs replace them letter for letter.
Numbers give log10(Kd / nM), so 0 is 1 nM and 3 is 1 µM. Smaller is tighter.
"ND" marks a missing value. The strain was present, yet no cells mated with the target were sequenced in that replicate, which points to weak or no binding.
For reference, the parent read 2.31 as the reference entry and 2.25 as a member of this library.
As a blank, each scFv also met three strains without target: over library AAYL52, 28% of these pairings were detected, typically at 3.91 and seldom below 2.90. For each scFv, signals with the empty controls are counted beside the result, with their mean in brackets.

| # | CDR-L1 | CDR-L2 | CDR-L3 | log10 Kd, replicates | control signals |
|---|---|---|---|---|---|
| 1 | EGDELRYYQAN | GLNNRPS | SSRDSSGFQVF | 2.69 / 2.87 / 2.49 | 4 of 9 (3.63) |
| 2 | PGDSLRYYYAN | GKNMRPS | NSRDSSGFQVF | 4.78 / ND / ND | 4 of 9 (4.31) |
| 3 | EGDSLRYYYAN | GENNRPS | SERDSSGFQVF | 1.57 / 2.02 / 0.92 | 1 of 9 (4.57) |
| 4 | EGDSLRYYYTN | GKPNRPS | SSRDSSGNQVF | ND / 3.88 / ND | 1 of 9 (4.74) |
| 5 | EGDSLRYYYAN | GKNNRLS | SSRNTSGFQVF | ND / ND / ND | 1 of 9 (4.27) |
| 6 | EVDSPRYYYAN | GKNNRPS | SSRDSGGFQVF | 3.96 / 4.28 / ND | 4 of 9 (3.90) |
| 7 | EGDSLRAYYAN | GKNNRPS | SSRDSSAFQMF | ND / 4.61 / ND | 4 of 9 (3.71) |
| 8 | EGDSMRYYYAN | GKNNRPS | SSRDSSPFQVF | ND / 5.59 / 3.06 | 4 of 9 (3.81) |
| 9 | EGRSLRYTYAV | GKNNRPS | SSRDSSGFQVF | 4.00 / 4.62 / 4.50 | 4 of 9 (4.23) |
| 10 | FGDSLRYYYAN | GKKNRPS | SFRDSSGFQVF | ND / ND / ND | 0 of 9 |
| 11 | ECDSLRYYYAN | GKDNRPS | SSRDSKGFQVF | 3.76 / 3.17 / ND | 3 of 9 (3.59) |
| 12 | EGDSLRYEYAN | GKNQRPS | PSRDSSGFQVF | 4.85 / 4.97 / 4.15 | 3 of 9 (4.34) |
| 13 | EGDSYRYYYAN | GKNNRPS | SSFDSSGFQVA | ND / 4.42 / ND | 3 of 9 (4.24) |
| 14 | EGDSLRPYYAN | GKNNRPS | SSRDSEGFQVQ | 2.99 / 3.74 / 3.56 | 6 of 9 (3.78) |
| 15 | EGNSLRYYYAQ | GKNNRPS | SSRDSSGFQVE | ND / 5.02 / ND | 1 of 9 (4.53) |
| 16 | EGSSLRYYYAW | GKNNRPS | SSRDSSGFQVF | 1.02 / 0.87 / 0.49 | 0 of 9 |
| 17 | EGDSLRQYYAN | GGNNRPS | SSRDSSGFGVF | 2.17 / 2.26 / 2.55 | 6 of 9 (4.02) |
| 18 | EGDSLRYYYAN | GKNNRNS | SSRGSSGFQVT | 2.99 / 4.04 / ND | 3 of 9 (3.70) |
| 19 | EGDDLRYYYAN | GKCNRPS | SSRDSSDFQVF | 4.05 / 3.90 / ND | 6 of 9 (4.11) |
| 20 | EGDSLRYYYAN | GWNNRPS | SSRESSGFQVY | ND / ND / ND | 4 of 9 (4.09) |
| 21 | EGDYLRYYYAN | GKNPRPS | SSRDSSGEQVF | 4.67 / 5.02 / ND | 3 of 9 (4.05) |
| 22 | EGDSLRYYYLC | GKNNRPS | SSRDSSGFQLF | 4.70 / ND / 4.73 | 5 of 9 (4.01) |
| 23 | EGDSLRYYYAN | GKDNRPS | SAWDSSGFQVF | 3.30 / 2.86 / 3.41 | 3 of 9 (3.86) |
| 24 | EGDSERYYHAN | GKNNRPS | SSRDSSGFQNF | ND / ND / ND | 1 of 9 (4.08) |
| 25 | EGDSLRYYYAN | GCNNRPS | SFRDSEGFQVF | 4.85 / 5.14 / 3.21 | 1 of 9 (4.92) |
| 26 | ERDSLRYYYAN | GKNNRPS | SSRDSSILQVF | 4.11 / 4.24 / 4.40 | 2 of 9 (3.23) |
| 27 | EGDSLRYYYAN | GKINRPS | ESRDSEGFQVF | 3.56 / 4.00 / 4.06 | 2 of 9 (3.65) |
| 28 | EGDSLRYYYAN | NKNNRPS | SRRDSSGFQDF | 3.14 / 2.45 / 1.83 | 3 of 9 (3.91) |
| 29 | EGDSLRYYYEN | GQNNRPS | SSDDSSGFQVF | ND / ND / ND | 2 of 9 (3.29) |
| 30 | EGVSLRIYYAN | GKWNRPS | SSRDSSGFQVF | 3.14 / ND / ND | 1 of 9 (2.61) |
| 31 | EGDSLRYYYAN | GKNGRPS | SSRNSWGFQVF | ND / ND / ND | 1 of 9 (4.23) |
| 32 | EEDSLRYYYAN | GKNNRMS | SSRDSSGFMVF | ND / ND / ND | 0 of 9 |
| 33 | EGDSLRYYYAN | MKNNRPS | SSRDGSGFQEF | 4.17 / 4.29 / 3.39 | 3 of 9 (3.39) |
| 34 | EGDSLRYYYAN | GKYNTPS | SSRDSSGFQGF | ND / 2.46 / ND | 1 of 9 (5.04) |
| 35 | EGDSLRYYYAN | GKNNRPS | SSLDSSGFTVF | 3.98 / 3.82 / 3.71 | 0 of 9 |
| 36 | EGDSLRYYYAN | PKINRPS | SSRDSSGFQVH | 4.02 / ND / 3.04 | 1 of 9 (3.38) |
| 37 | EGIPLRYMYAN | GKNNRPS | SSRDSSGFQVF | 1.82 / 1.89 / 1.72 | 3 of 9 (3.33) |
| 38 | ESDSLRYYYAN | GKNNRPS | SSRDSSGFQVF | 3.03 / 2.78 / 1.68 | 1 of 9 (3.84) |
| 39 | EGDSLRYYYAH | GKNNRPS | SSRDSSGEQVF | 5.23 / 3.97 / ND | 1 of 9 (2.90) |
| 40 | EGDSLRYYFAN | GKNNRPS | ISRDSSHFQVF | 3.35 / ND / 4.10 | 3 of 9 (3.76) |
| 41 | EGDSLRYWYAC | GKKNRPS | SSRDSSGFQVF | 4.69 / ND / ND | 1 of 9 (4.89) |
| 42 | EGGSYRYYYAN | GKNNRPS | SSRDSSGFGVF | 4.05 / ND / 4.06 | 5 of 9 (4.15) |
| 43 | EGDSYRYYYAN | GINNRPS | SSRDSSEFQVF | ND / 4.08 / ND | 2 of 9 (3.35) |
| 44 | EGDSLGRYYAN | GKNNRPS | SSRDSSGFQVQ | 2.41 / 2.23 / 2.41 | 2 of 9 (4.16) |
| 45 | EGDELRYYYAV | GKNNRPS | SSYDSSGFQVF | 4.77 / 3.49 / 3.51 | 2 of 9 (3.78) |
| 46 | GGDSLRYYYAN | CKNNRPS | SSRDSSGVQVF | ND / ND / 4.30 | 2 of 9 (4.78) |
| 47 | EGDSLRYYQAN | GKNNRPS | SSRDASGFQVF | 1.22 / 1.17 / 0.70 | 6 of 9 (4.47) |
| 48 | EGDSLRYYYAN | GCNNRSS | SSRVSSGFQVF | ND / 3.37 / 3.80 | 2 of 9 (4.57) |
| 49 | EGDSTRYYEAN | SKNNRPS | SSRDSSGFQVF | 2.84 / 2.67 / 2.64 | 3 of 9 (4.65) |
| 50 | EGDSLRYYYAN | GKNNRPG | SSRWSSIFQVF | 2.52 / 3.10 / 1.61 | 2 of 9 (3.71) |

From the list, the first 7 with no signal in any replicate:

CDR-L1,CDR-L2,CDR-L3,"log10 Kd, replicates",control signals
EGDSLRYYYAN,GKNNRLS,SSRNTSGFQVF,ND / ND / ND,1 of 9 (4.27)
FGDSLRYYYAN,GKKNRPS,SFRDSSGFQVF,ND / ND / ND,0 of 9
EGDSLRYYYAN,GWNNRPS,SSRESSGFQVY,ND / ND / ND,4 of 9 (4.09)
EGDSERYYHAN,GKNNRPS,SSRDSSGFQNF,ND / ND / ND,1 of 9 (4.08)
EGDSLRYYYEN,GQNNRPS,SSDDSSGFQVF,ND / ND / ND,2 of 9 (3.29)
EGDSLRYYYAN,GKNGRPS,SSRNSWGFQVF,ND / ND / ND,1 of 9 (4.23)
EEDSLRYYYAN,GKNNRMS,SSRDSSGFMVF,ND / ND / ND,0 of 9